{
  "sequences": {"note": "Sequences of proteins named here, by UniProt entry; tags and fusion partners are left off. A line that says so, or that is headed by a name, gives the form on record, which may keep a tag or linker.", "UniProt P98170, other isoform, or with tags, fused parts or gaps, stated change not applied": "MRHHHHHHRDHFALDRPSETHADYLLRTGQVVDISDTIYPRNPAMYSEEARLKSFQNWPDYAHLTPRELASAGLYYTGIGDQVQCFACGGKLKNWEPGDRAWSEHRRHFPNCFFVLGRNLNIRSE"},
  "source": "patent US9394263B2",
  "about": "“Substituted hetero-azepinones” (priority 2012, dated 2016)",
  "molecular_target": "BIR2 domain of XIAP (Homo sapiens (Human), UniProt P98170, C202A/C213G)",
  "experiment": "TR-FRET assay for BIR2: inhibition of binding of XIAP BIR2 domain to Peptide A (SMAC-derived peptide);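 further: percent inhibition measured across a concentration series of each compound, from which the IC50 was derived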",
  "experimental": "TR-FRET Assay for BIR2 and BIR3\nPercentage of inhibition at each concentration was determined to generate an IC50 value for each test compound.",
  "note": "Where a name gives a salt, the structure may show the parent alone.",
  "data": [
    {"smiles": "CN[C@@H](C)C(=O)N[C@H]1CSc2c(NC(=O)CCCC(C)=O)cccc2N(Cc2cccc3ccccc23)C1=O", "note": "[Example 24, 5-Oxo-hexanoic acid [(R)-3-((S)-2-methylamino-propionylamino)-5-naphthalen-1-ylmethyl-4-oxo-2,3,4,5-tetrahydro-benzo[b][1,4]thiazepin-9-yl]-amide hydrochloride]", "values": [
      {"measurement": "IC50", "result": 373, "unit": "nM"}
    ]}
  ]
}
